## Yeast mating assay B: variants of the scFv Ab-14

Target: peptide PDVDLGDISGINAS, taken from heptad repeat 2 (HR2) of SARS-CoV-2 spike.

Parent scFv Ab-14: VH joined to VL by a (GGGGS)3 linker. Changes lie in the heavy chain CDRs alone.
VH: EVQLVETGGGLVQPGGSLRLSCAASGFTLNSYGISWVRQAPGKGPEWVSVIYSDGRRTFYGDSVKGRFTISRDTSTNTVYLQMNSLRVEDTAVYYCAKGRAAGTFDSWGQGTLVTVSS
VL: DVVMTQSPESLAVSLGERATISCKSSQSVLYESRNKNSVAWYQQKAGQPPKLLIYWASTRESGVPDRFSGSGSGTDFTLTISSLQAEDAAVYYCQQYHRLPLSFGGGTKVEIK

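The starting antibody came from a phage panning campaign against this peptide. Designed CDR sequences, proposed from the first random library and measured here. Group labels follow the data file (Ctrl: baseline library sampled from a position-specific scoring matrix, with some repeated check sequences; GP: Gaussian process model; HC: hill climbing; a sequence that several methods proposed may carry one label only). The scFvs were displayed on barcoded MATa yeast, the peptide on MATalpha yeast. After mating in shaken culture at 30 °C for 16 h, diploids were selected and their barcode pairs sequenced. Scores were corrected for input abundance and mapped to Kd with protein pairs of known affinity run in the same pool. Each pool was mated in six replicate cultures.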

Positions count from residue 1 of the parent VH; S107C puts C in place of S.
Affinities are written as log10 Kd with Kd in nM; a lower number is a better binder.
Averages over replicates are reported, and they cover detected replicates only.
Where no diploid with the target was found in that replicate, the entry reads "ND": below detection, most likely a poor binder, though not proof of it.
The authors' rule: three or more of the six replicates give a measured affinity, fewer mean a poor binder.

| changes | group | log10 Kd, replicates | mean log10 Kd (nM) | control signals |
|---|---|---|---|---|
| S107C | Ctrl | ND / ND / ND / ND / ND / ND | ND | 0/18 |
| R56F D106E S107K | Ctrl | 1.46 / ND / 0.76 / ND / 1.21 / ND | 1.14 | 0/18 |
| T28E L29P A101E F105S D106H | Ctrl | ND / ND / ND / ND / ND / ND | ND | 0/18 |
| S31E T104Y | Ctrl | ND / ND / ND / ND / ND / ND | ND | 2/18 (1.26) |
| F27I T28M G61S D62G G103A | Ctrl | ND / ND / ND / ND / ND / ND | ND | 0/18 |
| R56C R100K | Ctrl | ND / ND / ND / ND / ND / ND | ND | 0/18 |
| T28S S53A G99R | Ctrl | ND / ND / ND / ND / ND / ND | ND | 0/18 |
| G61T R100A D106L | Ctrl | ND / ND / ND / ND / ND / ND | ND | 0/18 |
| S53G A101Q | Ctrl | ND / 1.56 / ND / ND / ND / ND | 1.56 | 1/18 (1.37) |
| S31D R56K G61I R100E | Ctrl | 0.69 / -0.46 / -0.55 / -0.41 / 0.06 / -0.10 | -0.13 | 0/18 |
| S63D R100W | Ctrl | ND / 1.74 / ND / ND / ND / 1.02 | 1.38 | 0/18 |
| T104V S107W | Ctrl | ND / ND / ND / ND / ND / ND | ND | 0/18 |
| T28N S53A G61S G99D T104R | Ctrl | ND / ND / ND / ND / ND / ND | ND | 0/18 |
| T58V R100L F105W | Ctrl | ND / ND / ND / ND / ND / ND | ND | 0/18 |
| T28H S31D R100Q | Ctrl | ND / 2.22 / 1.02 / 0.34 / 0.90 / 1.21 | 1.14 | 0/18 |
| F27E F105S | Ctrl | ND / ND / ND / ND / ND / ND | ND | 0/18 |
| T28E S31D G61T | Ctrl+GP_HC | 0.87 / 0.27 / -0.26 / -0.24 / 0.21 / 0.70; -0.11 / -0.68 / -0.39 / -0.85 / -0.55 / -0.52 | -0.13 | 0/36 |
| S63D A101E | Ctrl | 0.79 / 0.67 / 0.72 / 0.82 / 0.54 / 1.16 | 0.79 | 0/18 |
| N30E G61L | Ctrl | 0.35 / 0.49 / 1.77 / ND / 0.08 / 1.19 | 0.78 | 0/18 |
| T28A L29I S31K S53A G99W S107L | Ctrl | ND / ND / ND / ND / ND / ND | ND | 1/18 (1.93) |
| S31E Y32H T104Y S107M | Ctrl | 0.89 / 1.30 / 1.55 / 1.90 / 1.72 / 0.88 | 1.37 | 0/18 |
| S31D R100N D106M S107W | Ctrl | ND / ND / ND / ND / ND / ND | ND | 0/18 |
| L29V S53A S63K | Ctrl | 0.14 / -0.43 / 0.21 / 0.25 / -0.08 / -0.35 | -0.04 | 1/18 (1.76) |
| F27I A102Y | Ctrl | ND / ND / ND / ND / ND / ND | ND | 1/18 (1.35) |
| T28N Y60M F105P | Ctrl | ND / ND / ND / ND / ND / ND | ND | 0/18 |
| N30D D62G | Ctrl | ND / ND / ND / ND / ND / ND | ND | 0/18 |
| F59S G61T T104L | Ctrl | ND / ND / ND / ND / ND / ND | ND | 1/18 (3.47) |
| I34K | Ctrl | ND / ND / ND / ND / ND / ND | ND | 0/18 |
| N30E G61E | Ctrl | ND / ND / ND / ND / ND / ND | ND | 0/18 |
| F59H A101S D106H | Ctrl | ND / ND / ND / ND / ND / ND | ND | 0/18 |
| N30S S31Q G99M R100D | Ctrl | 2.13 / 1.91 / 1.68 / ND / 1.91 / 1.43 | 1.81 | 1/18 (1.56) |
| T28C F59M G61I | Ctrl | ND / ND / ND / ND / ND / ND | ND | 0/18 |
| T28D T58N A102D T104K | Ctrl | ND / 1.92 / ND / ND / ND / ND | 1.92 | 1/18 (2.78) |
| T28V R100Q A102E | Ctrl | ND / ND / ND / ND / ND / ND | ND | 0/18 |
| T28S F105D | Ctrl | ND / ND / ND / ND / ND / ND | ND | 0/18 |
| L29Q S53A G61I | Ctrl | ND / ND / ND / ND / ND / ND | ND | 0/18 |
| G61Q F105W D106E | Ctrl | ND / ND / ND / ND / ND / ND | ND | 0/18 |
| S31E Y52W T58Q | Ctrl | ND / ND / ND / ND / 2.12 / ND | 2.12 | 0/18 |
| T28D S63Q | Ctrl | 0.19 / 0.43 / 0.24 / 0.47 / 0.34 / 0.21 | 0.31 | 0/18 |
| F27D G61T R100D A101V D106S | Ctrl | 0.08 / 0.54 / 0.42 / 0.92 / 0.54 / 1.29 | 0.63 | 0/18 |
| T28N L29M G61S | Ctrl | 0.12 / 2.98 / ND / 0.08 / ND / 0.74 | 0.98 | 0/18 |
| R56V F59Q R100Q | Ctrl | ND / ND / 1.52 / 2.31 / ND / 1.55 | 1.80 | 0/18 |
| T28H N30G S31D F59G R100S D106H | Ctrl | ND / ND / ND / ND / ND / ND | ND | 1/18 (1.87) |
| G26E T28N A101N | Ctrl | ND / ND / 1.62 / ND / ND / ND | 1.62 | 0/18 |
| T28E N30G R56L D62Q S63Q A102K G103K | Ctrl | ND / ND / ND / ND / ND / ND | ND | 0/18 |
| N30E G61S R100W T104G | Ctrl | ND / ND / ND / ND / ND / ND | ND | 1/18 (1.29) |
| G26K F59A D106T | Ctrl | ND / ND / ND / ND / ND / ND | ND | 0/18 |

A selection of 3 entries from above:

| changes | group | log10 Kd, replicates | mean log10 Kd (nM) | control signals |
|---|---|---|---|---|
| N30S S31Q G99M R100D | Ctrl | 2.13 / 1.91 / 1.68 / ND / 1.91 / 1.43 | 1.81 | 1/18 (1.56) |
| N30E G61S R100W T104G | Ctrl | ND / ND / ND / ND / ND / ND | ND | 1/18 (1.29) |
| T28H N30G S31D F59G R100S D106H | Ctrl | ND / ND / ND / ND / ND / ND | ND | 1/18 (1.87) |

Where one sequence has several entries in the source, the replicates are listed entry by entry, parted by semicolons.
Background: pairings of all heavy chain designs with three empty control strains gave a value in 1% of cases (median 2.08, 5th percentile 0.84). Values in that range, when seen in few replicates, are hard to tell from nonspecific mating. The control count says in how many pairings with the empty strains this scFv gave a signal, with their mean in brackets.
The range of this assay differs from that of the first round, and the authors advise against merging the two.
Of ten entries with the parent sequence, four were seen in most replicates (averages 0.34 to 2.37), three in one and three in none, so single entries are noisy.

Reference: Li et al. 2023, doi:10.1038/s41467-023-39022-2. File: FLAb, binding data.